From patent US9988429B2, “Glucagon analogues” (Zealand Pharma A/S, priority 2013, dated 2018)

Protein sequences, listed by entry. Tags and fused reporters are not part of them. Residues count along the entry.
UniProt P30082, 27-485: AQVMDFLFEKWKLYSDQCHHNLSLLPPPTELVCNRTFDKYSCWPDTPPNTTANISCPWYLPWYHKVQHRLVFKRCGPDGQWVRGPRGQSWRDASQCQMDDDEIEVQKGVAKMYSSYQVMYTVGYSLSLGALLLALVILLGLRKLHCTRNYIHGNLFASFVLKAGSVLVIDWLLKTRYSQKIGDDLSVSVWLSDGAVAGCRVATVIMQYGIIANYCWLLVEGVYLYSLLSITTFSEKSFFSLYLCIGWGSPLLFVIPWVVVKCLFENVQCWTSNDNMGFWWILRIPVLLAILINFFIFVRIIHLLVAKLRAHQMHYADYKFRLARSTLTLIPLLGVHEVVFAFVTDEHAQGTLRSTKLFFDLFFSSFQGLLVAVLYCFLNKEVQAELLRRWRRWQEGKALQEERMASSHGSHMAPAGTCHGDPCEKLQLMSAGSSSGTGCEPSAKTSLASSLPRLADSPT
UniProt P47871, 26-477: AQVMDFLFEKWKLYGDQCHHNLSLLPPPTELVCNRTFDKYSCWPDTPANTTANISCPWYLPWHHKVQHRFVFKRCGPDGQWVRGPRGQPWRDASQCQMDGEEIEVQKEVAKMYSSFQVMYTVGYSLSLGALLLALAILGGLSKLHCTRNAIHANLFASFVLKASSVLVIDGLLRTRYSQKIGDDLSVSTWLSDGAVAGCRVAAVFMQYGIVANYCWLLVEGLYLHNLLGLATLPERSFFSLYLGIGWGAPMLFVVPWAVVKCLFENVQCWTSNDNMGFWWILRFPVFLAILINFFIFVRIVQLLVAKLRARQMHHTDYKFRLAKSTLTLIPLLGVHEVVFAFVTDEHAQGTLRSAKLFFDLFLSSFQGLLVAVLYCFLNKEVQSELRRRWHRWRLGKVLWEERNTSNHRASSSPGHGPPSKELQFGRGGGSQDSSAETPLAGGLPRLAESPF

Columns and labels:
[1] = target: endogenous glucagon receptor of primary rat hepatocytes (rat, UniProt P30082 27-485); test: cell-based or functional assay
[2] = target: human glucagon receptor (Glucagon-R) (human, UniProt P47871 26-477); test: cell-based or functional assay

Q: HAQGTFTSDYSKYLDSKAAHDFVEWLLSA (Lys17 side chain conjugated to hexadecanoyl-isoGlu; C-terminal amide (NH2)) [Compound 1: H-HAQGTFTSDYSKYLDS-K(Hexadecanoyl-isoGlu)-AAHDFVEWLLSA-NH2] was tested. Which “EC50 [nM] (inhibition of glycogen synthesis rate in primary rat hepatocytes)” value [1] did it give?
A: 1.3 nM

Q: What about the “EC50 hGCGR CHO-K1 [nM] (cAMP, AlphaScreen)” value [2] of the same binder?
A: 0.23 nM
